This note sets out measurements from BindingDB's records for PubMed 6655559 (University of California, 1983).

Amino acid sequences for entries named in this document (tags omitted).
UniProt G1T1Q0, whole entry: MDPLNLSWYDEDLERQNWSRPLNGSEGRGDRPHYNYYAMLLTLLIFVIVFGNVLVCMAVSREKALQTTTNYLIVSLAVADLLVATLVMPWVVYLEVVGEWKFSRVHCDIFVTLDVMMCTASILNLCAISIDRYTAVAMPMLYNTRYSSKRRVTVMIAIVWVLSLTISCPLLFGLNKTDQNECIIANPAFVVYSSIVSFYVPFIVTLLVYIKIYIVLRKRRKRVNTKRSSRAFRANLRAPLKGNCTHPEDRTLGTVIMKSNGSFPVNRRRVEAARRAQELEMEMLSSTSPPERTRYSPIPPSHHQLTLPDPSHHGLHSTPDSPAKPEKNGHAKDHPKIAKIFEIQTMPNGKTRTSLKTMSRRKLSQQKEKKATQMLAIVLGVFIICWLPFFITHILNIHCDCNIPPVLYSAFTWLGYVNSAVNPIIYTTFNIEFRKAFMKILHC

Several values for one entry are separate records, joined by “and”; a condition that tells them apart may be missing. Equal entries are not always repeated.

By Ki is commonly meant a measure of affinity in units of concentration, obtained from inhibition or displacement. High values mean a looser hold on the target, low ones a stronger hold on the target.

In this test the target is D(2) dopamine receptor (Oryctolagus cuniculus, UniProt G1T1Q0).

Compound `CCN1CCCC1CNC(=O)c1cc(S(N)(=O)=O)ccc1OC` (configuration not stated) [N-[(1-ethylpyrrolidin-2-yl)methyl]-2-methoxy-5-sulfamoylbenzamide] returned a Ki of 300 nM.
In the case of `CCN1CCC[C@H]1CNC(=O)c1cc(S(N)(=O)=O)ccc1OC` [Sulpiride-S], the Ki was 20 nM and 31 nM.
